{"sequences": {"note": "Sequences of proteins named here, by UniProt entry; tags and fusion partners are left off. A change or cut given only in a name is not applied to a line headed by its entry.", "UniProt A0A0H5BR52, entry or part of it": "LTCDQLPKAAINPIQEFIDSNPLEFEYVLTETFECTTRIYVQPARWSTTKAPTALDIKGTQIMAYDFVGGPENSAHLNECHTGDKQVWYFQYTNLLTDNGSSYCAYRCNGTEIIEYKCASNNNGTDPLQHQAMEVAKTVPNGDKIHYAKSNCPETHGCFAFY", "UniProt P52704": "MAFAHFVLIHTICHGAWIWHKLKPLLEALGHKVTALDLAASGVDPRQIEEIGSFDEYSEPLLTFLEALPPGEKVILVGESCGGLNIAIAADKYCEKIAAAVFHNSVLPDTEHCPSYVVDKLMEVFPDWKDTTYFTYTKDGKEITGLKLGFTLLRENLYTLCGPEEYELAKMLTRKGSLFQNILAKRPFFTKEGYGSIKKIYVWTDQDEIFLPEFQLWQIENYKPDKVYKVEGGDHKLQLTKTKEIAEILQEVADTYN"}, "source": "patent US20170166879A1", "about": "“NOVEL (R)-HYDROXYNITRILE LYASE” (PUBLIC UNIVERSITY CORPORATION TOYAMA PREFECTURAL UNIVERSITY, priority 2014, published 2017)", "key": {"R-ChHNL": {"target": "R-ChHNL (Chamberlinius hualienensis, UniProt A0A0H5BR52)", "experiment": "Search of inhibitor of R-ChHNL activity (remaining activity)", "format": "biochemical"}, "[1]": {"target": "S-HNL derived from Para rubber tree (Hevea brasiliensis) (Hevea brasiliensis, UniProt P52704)", "details": "cited from earlier work"}}, "data": [{"molecule": "N.N#CS", "note": "[ammonium thiocyanate]", "values": [{"measurement": "inhibition of the R-ChHNL", "setting": "R-ChHNL", "result": "does not inhibit"}, {"measurement": "Remaining activity", "setting": "R-ChHNL; pH 7", "result": 43, "unit": "%"}, {"measurement": "inhibition of S-HNL", "setting": "[1]", "result": "strongly inhibits"}]}]}
